Tests used:
[1] = target: T1, Sigma non-opioid intracellular receptor 1 (Homo sapiens, UniProt Q99720); assay: ChEBML_201751
[2] = target: T1, Sigma non-opioid intracellular receptor 1; assay: (§1) Potency at the sigma binding site was determined in radioligand
[3] = target: T1, Sigma non-opioid intracellular receptor 1; assay: as §1; remark: listed apart in the source

Structure (SMILES)	IC50 [1]	IC50 [2]	IC50 [3]
O=c1cc(-c2ccccc2)oc2ccc(OCCCCCCN3CCC(n4c(=O)[nH]c5ccccc54)CC3)cc12	347 nM	369 nM	
O=C1NCN(c2ccccc2)C12CCN(CCCCCCOc1ccc3oc(-c4ccccc4)cc(=O)c3c1)CC2		1200 nM	1900 nM

Reference: BindingDB's records for 1315869 (Nova Pharmaceutical, 1992)
